From the supplement of paper PMC8728848
This is one part of a sample in which the strongest signals are shown more often than they occur.

How the values were obtained:
Assay in all cases: glycan array binding signal (z-score within array); higher = stronger binding
Settings in all cases: glycan notation: IUPAC condensed, linker removed
[1] = target: Gal(b1-4)GlcNAc(b1-3)Gal(b1-4)GlcNAc(b1-2)Man(a1-3)[Gal(b1-4)GlcNAc(b1-3)Gal(b1-4)GlcNAc(b1-2)Man(a1-6)]Man(b1-4)GlcNAc(b1-4)GlcNAc
[2] = target: Gal(b1-4)GlcNAc(b1-3)Gal(b1-4)GlcNAc(b1-2)Man(a1-3)[Gal(b1-4)GlcNAc(b1-3)Gal(b1-4)GlcNAc(b1-2)Man(a1-6)]Man(b1-4)GlcNAc(b1-4)[Fuc(a1-6)]GlcNAc
[3] = target: Gal(b1-4)GlcNAc(b1-3)Gal(b1-4)GlcNAc(b1-3)Gal(b1-4)GlcNAc(b1-3)Gal(b1-4)GlcNAc(b1-3)Gal(b1-4)GlcNAc(b1-2)Man(a1-3)[Gal(b1-4)GlcNAc(b1-3)Gal(b1-4)GlcNAc(b1-3)Gal(b1-4)GlcNAc(b1-3)Gal(b1-4)GlcNAc(b1-3)Gal(b1-4)GlcNAc(b1-2)Man(a1-6)]Man(b1-4)GlcNAc(b1-4)[Fuc(a1-6)]GlcNAc
[4] = target: Gal(b1-4)GlcNAc(b1-3)Gal(b1-4)GlcNAc(b1-3)Gal(b1-4)GlcNAc(b1-3)Gal(b1-4)GlcNAc(b1-3)Gal(b1-4)GlcNAc(b1-2)[Gal(b1-4)GlcNAc(b1-3)Gal(b1-4)GlcNAc(b1-3)Gal(b1-4)GlcNAc(b1-3)Gal(b1-4)GlcNAc(b1-3)Gal(b1-4)GlcNAc(b1-6)]Man(a1-6)[Gal(b1-4)GlcNAc(b1-3)Gal(b1-4)GlcNAc(b1-3)Gal(b1-4)GlcNAc(b1-3)Gal(b1-4)GlcNAc(b1-3)Gal(b1-4)GlcNAc(b1-2)Man(a1-3)]Man(b1-4)GlcNAc(b1-4)[Fuc(a1-6)]GlcNAc
[5] = target: Gal(b1-4)GlcNAc(b1-3)Gal(b1-4)GlcNAc(b1-3)Gal(b1-4)GlcNAc(b1-3)Gal(b1-4)GlcNAc(b1-3)Gal(b1-4)GlcNAc(b1-3)Gal(b1-4)GlcNAc(b1-2)Man(a1-3)[Gal(b1-4)GlcNAc(b1-3)Gal(b1-4)GlcNAc(b1-3)Gal(b1-4)GlcNAc(b1-3)Gal(b1-4)GlcNAc(b1-3)Gal(b1-4)GlcNAc(b1-3)Gal(b1-4)GlcNAc(b1-2)Man(a1-6)]Man(b1-4)GlcNAc(b1-4)GlcNAc
[6] = target: Gal(b1-4)GlcNAc(b1-3)Gal(b1-4)GlcNAc(b1-3)GalNAc
[7] = target: Gal(b1-4)GlcNAc(b1-3)Gal(b1-4)GlcNAc(b1-6)[Gal(b1-3)]GalNAc
[8] = target: Gal3S(b1-3)[Fuc(a1-4)]GlcNAc
[9] = target: GlcNAc(a1-4)Gal(b1-3)GlcNAc
[10] = target: GlcNAc(b1-2)[GlcNAc(b1-6)]Man(a1-6)[GlcNAc(b1-4)][GlcNAc(b1-2)Man(a1-3)]Man(b1-4)GlcNAc(b1-4)GlcNAc
[11] = target: GlcNAc(b1-3)Gal(b1-4)GlcNAc(b1-2)[GlcNAc(b1-3)Gal(b1-4)GlcNAc(b1-6)]Man(a1-6)[GlcNAc(b1-3)Gal(b1-4)GlcNAc(b1-2)Man(a1-3)]Man(b1-4)GlcNAc(b1-4)GlcNAc
[12] = target: GlcNAc(b1-3)Gal(b1-4)GlcNAc(b1-3)Gal(b1-4)GlcNAc(b1-3)Gal(b1-4)GlcNAc(b1-3)Gal(b1-4)GlcNAc(b1-2)Man(a1-3)[GlcNAc(b1-3)Gal(b1-4)GlcNAc(b1-3)Gal(b1-4)GlcNAc(b1-3)Gal(b1-4)GlcNAc(b1-3)Gal(b1-4)GlcNAc(b1-2)Man(a1-6)]Man(b1-4)GlcNAc(b1-4)[Fuc(a1-6)]GlcNAc
[13] = target: Man(a1-2)Man(a1-2)Man(a1-6)[Man(a1-3)]Man
Man(a1-3)[Man(a1-6)]Man = target: Man(a1-3)[Man(a1-6)]Man
[14] = target: Man(a1-3)[Man(a1-6)]Man(b1-4)GlcNAc(b1-4)[Fuc(a1-6)]GlcNAc
[15] = target: Neu5Ac(a2-3)Gal(b1-3)GalNAc(b1-4)[Neu5Ac(a2-3)]Gal(b1-4)Glc
[16] = target: Neu5Ac(a2-3)Gal(b1-3)GlcNAc(b1-3)Gal(b1-3)GlcNAc
[17] = target: Neu5Ac(a2-3)Gal(b1-4)GlcNAc(b1-2)Man(a1-3)[Neu5Ac(a2-3)Gal(b1-4)GlcNAc(b1-2)Man(a1-6)]Man(b1-4)GlcNAc(b1-4)GlcNAc
[18] = target: Neu5Ac(a2-3)Gal(b1-4)GlcNAc(b1-2)[Neu5Ac(a2-3)Gal(b1-4)GlcNAc(b1-6)]Man(a1-6)[Neu5Ac(a2-3)Gal(b1-4)GlcNAc(b1-2)Man(a1-3)][GlcNAc(b1-4)]Man(b1-4)GlcNAc(b1-4)GlcNAc
[19] = target: Neu5Ac(a2-3)Gal(b1-4)GlcNAc(b1-6)GalNAc
[20] = target: Neu5Ac(a2-3)[GalNAc(b1-4)]Gal(b1-4)GlcNAc(b1-3)GalNAc
[21] = target: Neu5Ac(a2-6)Gal(b1-4)GlcNAc(b1-2)[Neu5Ac(a2-6)Gal(b1-4)GlcNAc(b1-4)]Man(a1-3)[GlcNAc(b1-4)][Neu5Ac(a2-6)Gal(b1-4)GlcNAc(b1-2)[Neu5Ac(a2-6)Gal(b1-4)GlcNAc(b1-6)]Man(a1-6)]Man(b1-4)GlcNAc(b1-4)GlcNAc
[22] = target: Neu5Ac(a2-6)Gal(b1-4)GlcNAc(b1-2)[Neu5Ac(a2-6)Gal(b1-4)GlcNAc(b1-4)]Man(a1-3)[GlcNAc(b1-4)][Neu5Ac(a2-6)Gal(b1-4)GlcNAc(b1-4)Man(a1-6)]Man(b1-4)GlcNAc(b1-4)GlcNAc
[23] = target: Neu5Ac(a2-6)Gal(b1-4)GlcNAc(b1-2)[Neu5Ac(a2-6)Gal(b1-4)GlcNAc(b1-6)]Man(a1-6)[Neu5Ac(a2-6)Gal(b1-4)GlcNAc(b1-2)Man(a1-3)][GlcNAc(b1-4)]Man(b1-4)GlcNAc(b1-4)GlcNAc
[24] = target: Neu5Ac(a2-8)Neu5Ac(a2-3)Gal(b1-3)GalNAc(b1-4)[Neu5Ac(a2-8)Neu5Ac(a2-3)]Gal(b1-4)Glc
Neu5Gc(a2-3)Gal(b1-4)Glc = target: Neu5Gc(a2-3)Gal(b1-4)Glc

B1: Gal 7 (Mus musculus) (protein)
chain: MSPILGYWKIKGLVQPTRLLLEYLEEKYEEHLYERDEGDKWRNKKFELGLEFPNLPYYIDGDVKLTQSMAIIRYIADKHNMLGGCPKERAEISMLEGAVLDIRYGVSRIAYSKDFETLKVDFLSKLPEMLKMFEDRLCHKTYLNGDHVTHPDFMLYDALDVVLYMDPMCLDAFPKLVCFKKRIEAIPQIDKYLKSSKYIAWPLQGWQATFGGGDHPPKSDLVPRGSMSATHHKTSLPQGVRVGTVMRIRGMVPDQAGRFHVNLLCGEEQGADAALHFNPRLDTSEVVFNTKEQGKWGREERGTGIPFERGQPFEVLLIATEEGFKAVVGDDEYLHFHHRMPPARVRLVEVGGDVQLHSLNIF
Q: B1 was tested. Which “glycan array binding signal (z-score)” value [1] did it give?
A: 0.489

Q: What about the “glycan array binding signal (z-score)” value [2] of the same binder?
A: 1.06

Q: What about the “glycan array binding signal (z-score)” value [3] of the same binder?
A: 2.7

Q: And the “glycan array binding signal (z-score)” value [4]?
A: 4.22

Q: And the “glycan array binding signal (z-score)” value [5]?
A: 2.7

Q: And the “glycan array binding signal (z-score)” value [6]?
A: 0.003

Q: And the “glycan array binding signal (z-score)” value [7]?
A: 0.039

Q: What about the “glycan array binding signal (z-score)” value [8] of the same binder?
A: -0.356

Q: What about the “glycan array binding signal (z-score)” value [9] of the same binder?
A: -0.372

Q: What about the “glycan array binding signal (z-score)” value [10] of the same binder?
A: -0.304

Q: What about the “glycan array binding signal (z-score)” value [11] of the same binder?
A: -0.242

Q: What about the “glycan array binding signal (z-score)” value [12] of the same binder?
A: 0.643

Q: And the “glycan array binding signal (z-score)” value [13]?
A: -0.347

Q: And the “glycan array binding signal (z-score)” value (Man(a1-3)[Man(a1-6)]Man)?
A: -0.302

Q: And the “glycan array binding signal (z-score)” value [14]?
A: -0.341

Q: And the “glycan array binding signal (z-score)” value [15]?
A: -0.321

Q: And the “glycan array binding signal (z-score)” value [16]?
A: 0.779

Q: And the “glycan array binding signal (z-score)” value [17]?
A: -0.094

Q: And the “glycan array binding signal (z-score)” value [18]?
A: -0.077

Q: What about the “glycan array binding signal (z-score)” value [19] of the same binder?
A: -0.381

Q: What about the “glycan array binding signal (z-score)” value [20] of the same binder?
A: -0.2

Q: What about the “glycan array binding signal (z-score)” value [21] of the same binder?
A: -0.398

Q: And the “glycan array binding signal (z-score)” value [22]?
A: -0.344

Q: And the “glycan array binding signal (z-score)” value [23]?
A: -0.315

Q: And the “glycan array binding signal (z-score)” value [24]?
A: -0.31

Q: What about the “glycan array binding signal (z-score)” value (Neu5Gc(a2-3)Gal(b1-4)Glc) of the same binder?
A: -0.307
